Reference: patent publication US20190247353A1, “ACNE STRAIN-SELECTIVE ANTIBACTERIAL AGENT” (MOMOTANI JUNTENKAN CO., LTD., priority 2016, published 2019)

System: HL053PA1 strain (RT4) and HL043PA1 strain (RT5) versus HL110PA3 strain (RT6)
Test: Strain-selective antibacterial activity (average of MICRT6/MICRT4 and MICRT6/MICRT5)
Assay type: cell-based, Propionibacterium acnes
Conditions: pH 6.0 (Example 1)
Text: Herein, “acne strain-selective antibacterial activity” or “strain-selective antibacterial activity” means an index indicating better inhibition of growth of a dominant strain in acne patients compared to that of a dominant strain in healthy subjects. It is expressed by the average value of the values (MICRT6/MICRT4, and MICRT6/MICRTS) obtained by dividing the minimum inhibitory concentration (MIC) of an object substance with respect to the dominant strain in healthy subjects (RT6 strain) (MICRT6) respectively by the MIC of the object substance with respect to the dominant strain in acne patients (RT4 strain) (MICRT4), and by the MIC of the object substance with respect to the dominant strain in acne patients (RT5 strain) (MICRT5).
The strain-selective antibacterial activity of each test substance (Table 2, right-most column) was evaluated based on the following rating criteria (Table 3). When the strain-selective antibacterial activity is indicated by a numerical range, the rating was based on the minimum value thereof.

With `CCCCCCCCCCCC(=O)O` [Lauric acid (C12:0), Lauric acid, reference compound] the Strain-selective antibacterial activity was 0.75.
